This assay concerns Bcap37. The assay can be described thus: Cytotoxicity against human Bcap37 cells after 72 hrs by MTT assay. The assay is classed as functional, cell-based.

Consider `O=C(/C=C/c1ccc(Oc2ncnc3ccccc23)cc1)/C=C/c1cc([N+](=O)[O-])ccc1Cl`, for which the Activity result is “Dose-dependent effect”.

Values taken from ChEMBL document CHEMBL2429743, “Synthesis and antitumor properties of novel curcumin analogs” (Med Chem Res, 2013).
